Drawing on PubChem BioAssay AID504411 (The Scripps Research Institute Molecular Screening Center, 2011), this text covers inhibition for 27 compounds.

Protein sequences, listed by entry. Tags and fused reporters are not part of them. Lines headed by an entry give the natural chain unless they say otherwise; changes in a name come on top.
UniProt Q8NCG7: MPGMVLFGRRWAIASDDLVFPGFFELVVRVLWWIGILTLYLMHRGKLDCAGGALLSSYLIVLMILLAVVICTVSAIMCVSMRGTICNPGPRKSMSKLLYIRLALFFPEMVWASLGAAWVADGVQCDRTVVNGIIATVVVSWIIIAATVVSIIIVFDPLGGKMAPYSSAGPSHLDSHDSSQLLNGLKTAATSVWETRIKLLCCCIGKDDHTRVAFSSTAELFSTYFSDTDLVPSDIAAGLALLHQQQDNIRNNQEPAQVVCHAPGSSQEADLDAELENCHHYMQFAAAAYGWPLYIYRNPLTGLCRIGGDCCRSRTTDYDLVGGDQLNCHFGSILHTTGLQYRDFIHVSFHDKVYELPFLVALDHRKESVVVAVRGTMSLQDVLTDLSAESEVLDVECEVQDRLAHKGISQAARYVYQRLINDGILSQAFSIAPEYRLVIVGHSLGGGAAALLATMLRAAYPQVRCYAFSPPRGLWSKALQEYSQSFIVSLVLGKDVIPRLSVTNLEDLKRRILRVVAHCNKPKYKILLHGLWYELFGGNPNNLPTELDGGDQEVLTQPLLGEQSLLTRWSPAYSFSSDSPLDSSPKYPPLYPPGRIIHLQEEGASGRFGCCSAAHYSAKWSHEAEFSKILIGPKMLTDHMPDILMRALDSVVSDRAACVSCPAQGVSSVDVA

Each structure is given as a SMILES string. This is a selection; strong and weak results do not stand in their true shares. Active and inactive are the calls of the source. Rule as the data show it: active = inhibition above about 34%; inactive = the rest.

The experiment concerns the target Diacylglycerol lipase-beta (Homo sapiens) (UniProt Q8NCG7). Put plainly: DAGLB lipase inhibitors, primary screen, biochemical, fluorescence, HTS (AID 504411).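 Also: 0% = enzyme with vehicle and 100% = wells lacking enzyme.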 The conditions noted are these: HEK293T DAGLB membrane lysate, EnzChek fluorogenic substrate; at 5.17 µM; active compounds read high.
For the compound `O=P1(N(CCCl)CCCl)NCCC(C(F)(F)F)O1` (configuration not stated), the inhibition is inactive: -0.95%.

`CC(C)(C)C(=O)NC(Sc1ncccn1)C(Cl)(Cl)Cl` (configuration not stated): the inhibition was inactive: 3.54%.

For the compound `Nc1cccc2c([As](=O)(O)O)cccc12`, the inhibition was inactive: -0.74%.

Regarding `Cc1ccc(NCCc2c([N+](=O)[O-])cc([N+](=O)[O-])cc2[N+](=O)[O-])cc1`, the inhibition was inactive: 16.2%.

For the compound `CCCOP(=S)(Nc1nc(N)cc(=O)[nH]1)OCCC`, the inhibition is inactive: -1.08%.

Turning to `COc1cc(C2NCCC3(OCCO3)C2(C)C)cc(OC)c1OC` (configuration not stated), the inhibition was inactive: 0.77%.

Turning to `CCOP(=O)(Nc1cccc2ccccc12)OCC`, the inhibition was inactive: -0.21%.

Consider `O=C(OC1CN2CCC1CC2)c1ccc(Cl)cc1` (configuration not stated), for which the inhibition was inactive: 0.23%.

`COc1cc(C(=O)NCC2(N3CCOCC3)CCCCC2)cc(Cl)c1OC(C)C`: the inhibition was inactive: -6.03%.

On to `O=[As](O)(O)c1cccnc1`, for which the inhibition is inactive: 0.82%.

For `CS(=O)(=O)c1ccc(Cl)c(NC(=O)COC(=O)C(O)(c2ccccc2)c2ccccc2)c1`, the inhibition was inactive: -3.5%.

As to `O=[As](O)(c1cccc(O)c1)c1cccc(O)c1`, the inhibition is inactive: -1.22%.

In the case of `Cc1cccc(OCC(=O)OC2CN3CCC2CC3)c1` (configuration not stated), the inhibition was inactive: 0.04%.

Regarding `NC(=O)Nc1ccc([As](=O)(O)O)cc1`, the inhibition is inactive: 0.17%.

As for `N#CCCN(C(=O)COC(=O)C(O)(c1ccccc1)c1ccccc1)c1ccc(F)cc1`, the inhibition is inactive: 0.83%.

Turning to `CN(C(=O)Cc1ccccc1)[C@@H]1CC[C@]2(CCCO2)C[C@H]1N1CCCC1`, the inhibition was inactive: 3.14%.

As to `CCOP1(=S)c2c(C)nn(CCC#N)c2N=C(c2ccc(F)cc2)N1C` (configuration not stated), the inhibition was inactive: -0.95%.

Consider `CN(C)C(=O)c1cc([N+](=O)[O-])cc2c1-c1c(cc([N+](=O)[O-])cc1[N+](=O)[O-])C2=O`, for which the inhibition is inactive: 2.39%.

Regarding `O=[N+]([O-])c1ccc2c(c1)nnn2O`, the inhibition was inactive: 2.31%.

Regarding `CN(C(=O)Cc1ccc(Cl)c(Cl)c1)[C@H]1CC[C@@]2(CCCO2)C[C@@H]1N1CCCC1`, the inhibition was inactive: 1.38%.

Take `CCOP1(=S)c2c(C)nn(CCC#N)c2N=C(c2ccccc2F)N1C` (configuration not stated): the inhibition was inactive: 0.6%.

As for `O=P(Nc1nccs1)(c1ccccc1)c1nc2ccccc2s1` (configuration not stated), the inhibition is inactive: -1.84%.

Consider `O=P(Nc1nccs1)(Oc1ccccc1)Oc1ccccc1`, for which the inhibition is inactive: -2.12%.

For the compound `CS(=O)(=O)c1cc([N+](=O)[O-])c2no[n+]([O-])c2c1`, the inhibition is inactive: 2.4%.

With `O=C(O)COc1ccc([As](=O)(O)O)cc1[N+](=O)[O-]`, the inhibition is inactive: -0.14%.

Consider `Nc1ccccc1[As](=O)(O)c1ccccc1`, for which the inhibition was inactive: -0.56%.

Turning to `ClCCSc1nnc(-c2cccnc2)o1`, the inhibition is inactive: 0.9%.

For orientation: inhibition means the relative decrease from the control value, in per cent.
